This assay concerns the target mutant B-RAF (Homo sapiens, UniProt P15056, V600E). Nature of the assay: RAF biochemical assay (MEK-1 phosphorylation, anti-phospho MEK1/2 detection). The settings on record: read-out: Mutant B-RAF IC50.

By UniProt entry, the sequences of proteins in these tests, tags left out.
UniProt P15056, whole entry V600E: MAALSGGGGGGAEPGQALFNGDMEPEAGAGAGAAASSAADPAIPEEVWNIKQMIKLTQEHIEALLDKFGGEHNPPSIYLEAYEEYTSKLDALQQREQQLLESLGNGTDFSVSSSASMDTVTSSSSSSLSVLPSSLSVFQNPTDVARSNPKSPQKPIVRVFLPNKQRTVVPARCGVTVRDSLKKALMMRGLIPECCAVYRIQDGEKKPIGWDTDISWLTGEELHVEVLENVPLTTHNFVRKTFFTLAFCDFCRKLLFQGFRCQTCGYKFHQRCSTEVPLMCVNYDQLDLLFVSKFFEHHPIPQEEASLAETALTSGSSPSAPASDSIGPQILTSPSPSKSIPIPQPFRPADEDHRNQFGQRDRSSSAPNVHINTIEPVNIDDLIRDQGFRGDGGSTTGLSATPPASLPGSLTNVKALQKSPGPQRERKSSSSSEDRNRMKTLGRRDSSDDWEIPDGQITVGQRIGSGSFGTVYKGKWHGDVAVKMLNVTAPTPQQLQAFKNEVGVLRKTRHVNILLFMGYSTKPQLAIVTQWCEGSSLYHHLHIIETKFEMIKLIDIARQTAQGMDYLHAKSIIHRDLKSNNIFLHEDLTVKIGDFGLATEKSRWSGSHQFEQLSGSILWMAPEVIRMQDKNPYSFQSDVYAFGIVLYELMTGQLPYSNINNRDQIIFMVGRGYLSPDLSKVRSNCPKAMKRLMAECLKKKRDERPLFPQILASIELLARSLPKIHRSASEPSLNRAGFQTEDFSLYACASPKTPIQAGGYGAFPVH

Each structure is given as a SMILES string.

We go through one compound from patent publication US7501430B2 (ArQule, Inc., priority 2006, dated 2009).

As to `O=C(O)c1ccc(S(=O)(=O)N2CCC[C@@H](Nc3nccc(-c4c(-c5cccc(O)c5)nc5sccn45)n3)C2)cc1`, the IC50 was 2 nM.
